# Test results reported in PubChem BioAssay AID449763 (Sanford-Burnham Center for Chemical Genomics, 2010).
# The list shows a part of the results, in another mix than the full data. Activity calls are given as the source filed them.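 The calls were made as follows: active = at 10 µM dose, activation of 40% or more, normalized to positive control; inactive = the rest.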
# Test: activators of apoptotic CHOP UPR arm, primary screen, cell-based, CHO-CHOP luciferase reporter, luminescence, uHTS (AID 449763);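 also: 100% = tunicamycin at 10 µg/mL and 0% = DMSO alone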
# Details: at 10 µM, hits give high values, percent of tunicamycin response over DMSO baseline
# Outline: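 System: CHO CHOP reporter cells. Amount: 500 cells per well. Buffer or medium: F12 medium, 10% FBS. Compound dosing: one dose, 10 µM in 0.5% DMSO. Incubation: 6 h compound exposure at 37 °C after overnight seeding. Technique: Steady-Glo luciferase luminescence. Benchmarks: tunicamycin and DMSO controls.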
row,Compound,activation
1,Cc1cc(C)cc(OP(C)(=O)Nc2ccccn2)c1 (stereo unspecified),inactive: 0.596%
2,CP(=O)(Nc1cccc(Br)c1)Oc1ccccc1 (stereo unspecified),inactive: -1.02%
3,Cc1ccc(C)c(NP(C)(=O)Oc2ccccc2)c1 (stereo unspecified),inactive: 0.237%
4,Cc1cc(C)cc(OP(C)(=O)Nc2ccc(C)cc2C)c1 (stereo unspecified),inactive: -0.349%
5,CCOC(=O)c1ccc(NP(C)(=O)Oc2cc(C)cc(C)c2)cc1 (stereo unspecified),inactive: 0.133%
6,COc1ccccc1OP(C)(=O)Nc1cccc(Br)c1 (stereo unspecified),inactive: -0.0236%
7,CC1=NCCc2c1[nH]c1ccccc21.O=[N+]([O-])c1cc([N+](=O)[O-])c(O)c([N+](=O)[O-])c1,inactive: -0.821%
8,O=C(O)c1cccc(Nc2c([N+](=O)[O-])cc([N+](=O)[O-])cc2[N+](=O)[O-])c1,inactive: 1.33%
9,CCCOc1ccc(NP(C)(=O)Oc2ccc(Cl)cc2)cc1 (stereo unspecified),inactive: 4.73%
10,CP(=O)(Nc1ccc(SC(F)(F)F)cc1)Oc1ccccc1 (stereo unspecified),inactive: 1.93%
11,COc1ccccc1OP(C)(=O)Nc1c(C)cccc1C (stereo unspecified),inactive: 0.898%
12,CN1CCCCC1COC(=O)C1(O)c2ccccc2CCc2ccccc21 (stereo unspecified),inactive: 2.1%
13,CCOC(=O)C(CC)C1=NC(C)(C)Cc2ccccc21.O=[N+]([O-])c1cc([N+](=O)[O-])c(O)c([N+](=O)[O-])c1 (stereo unspecified),inactive: 0.776%
14,CC1=C2N=C(C=C3N=C(C(C)=C4[N-][C@@](C)([C@@H]5N=C1[C@](C)(CCC(=O)NC[C@@H](C)OP(=O)([O-])O[C@H]1[C@@H](O)[C@@H](n6cnc7cc(C)c(C)cc76)O[C@@H]1CO)[C@H]5CC(N)=O)[C@@](C)(CC(N)=O)[C@@H]4CCC(N)=O)[C@@](C)(CC(N)=O)[C@@H]3CCC(N)=O)C(C)(C)[C@@H]2CCC(N)=O.[C-]#N.[Co+3],inactive: -3.11%
15,O=[N+]([O-])c1cc([N+](=O)[O-])c(Nc2nnnn2CCO)c([N+](=O)[O-])c1,inactive: 1.23%
16,Cc1nc2ccc3ccccc3c2s1.O=[N+]([O-])c1cc([N+](=O)[O-])c(O)c([N+](=O)[O-])c1,inactive: 3.56%
17,O=[N+]([O-])c1cc([N+](=O)[O-])c(-c2cnn(-c3ccccc3)c2)c([N+](=O)[O-])c1,inactive: 9.16%
18,O=[N+]([O-])c1cc([N+](=O)[O-])c(-n2nnc3ccccc32)c([N+](=O)[O-])c1,inactive: 3.2%
19,CP(=O)(Nc1ccccn1)Oc1ccc(Cl)cc1 (stereo unspecified),inactive: 0.63%

row,Compound,activation
1,CCOP(C)(=S)SCC(=O)NC(C)C(=O)O (stereo unspecified),inactive: 0.465%
2,CCOC(=O)c1ccc(NP(C)(=O)Oc2ccc(OC)cc2)cc1 (stereo unspecified),inactive: 0.831%
3,O=[N+]([O-])c1cc([N+](=O)[O-])c(O)c([N+](=O)[O-])c1.c1ccc(Oc2ccncc2)cc1,inactive: -2.28%
4,Cc1cc(C)cc(OP(C)(=O)Nc2ccc(SC(F)(F)F)cc2)c1 (stereo unspecified),inactive: 0.635%
5,CP(=O)(NC(=O)Nc1ccccc1)Oc1ccccc1 (stereo unspecified),inactive: 0.16%
6,CCc1ccc(OP(C)(=O)N2CCN(c3ccc([N+](=O)[O-])cc3)CC2)cc1 (stereo unspecified),inactive: -0.678%
7,CP(=O)(Oc1ccccc1)OC(c1ccccc1)C(F)(F)F (stereo unspecified),inactive: -2.54%
8,Cc1cccc(C)c1OP(C)(=O)Nc1ccc(SC(F)(F)F)cc1 (stereo unspecified),inactive: -4.19%
9,CP(=O)(Nc1ccc(SC(F)(F)F)cc1)Oc1ccc(Cl)cc1 (stereo unspecified),inactive: 0.449%
10,COc1ccccc1OP(C)(=O)Nc1ccccc1 (stereo unspecified),inactive: 11.5%
11,CP(=O)(Nc1ccccc1Br)Oc1ccccc1 (stereo unspecified),inactive: 0.514%
12,CP(=S)(Nn1cnnc1)Oc1ccccc1 (stereo unspecified),inactive: -0.994%
13,COc1ccc(OP(C)(=O)Nc2cccc(F)c2)cc1 (stereo unspecified),inactive: -0.76%
14,COc1ccccc1OP(C)(=O)Nc1cc(Cl)ccc1C (stereo unspecified),inactive: 4.94%
15,Cc1cc(C)cc(OP(C)(N)=O)c1 (stereo unspecified),inactive: 1.58%
16,CCOC(=O)c1ccc(NP(C)(=O)Oc2ccccc2)cc1 (stereo unspecified),inactive: -0.516%
17,Cc1ccc(NP(C)(=O)Oc2ccccc2)c(C)c1 (stereo unspecified),inactive: -0.553%
18,COc1ccccc1OP(C)(=O)Nc1ccc(C)cc1 (stereo unspecified),inactive: 1.26%
19,Cc1cccc(C)c1OP(C)(N)=O (stereo unspecified),inactive: -0.674%

row,Compound,activation
1,CC(C)(C)c1ccc(OP(C)(=O)Nc2ccc(SC(F)(F)F)cc2)cc1 (stereo unspecified),inactive: 1.21%
2,O=[N+]([O-])c1cc([N+](=O)[O-])c(Nc2cccnc2)c([N+](=O)[O-])c1,inactive: -0.0308%
3,CCN(CC)CCCOC(=O)C(O)(c1ccccc1)c1ccccc1,inactive: -0.419%
4,CCc1ccc(OP(C)(=O)O)cc1,inactive: -0.861%
5,COc1ccccc1OP(C)(=O)Nc1ccc(C)cc1C (stereo unspecified),inactive: -1.05%
6,CP(=O)(Nc1ccccn1)Oc1ccccc1 (stereo unspecified),inactive: 0.346%
7,Cc1c(NP(C)(=O)Oc2ccc(C(C)C)cc2)c(=O)n(-c2ccccc2)n1C (stereo unspecified),inactive: -1.09%
8,O=[N+]([O-])c1cc([N+](=O)[O-])c(Nc2ccccn2)c([N+](=O)[O-])c1,inactive: 0.733%
9,CN(C)CCOC(=O)C(O)(c1ccccc1)C1CCCC1 (stereo unspecified),inactive: -0.0555%
10,COc1ccc(OP(C)(=O)Nc2ccccn2)cc1 (stereo unspecified),inactive: -1.75%
11,COc1ccccc1OP(C)(=O)Nc1ccc(Br)cc1 (stereo unspecified),inactive: -1.32%
12,CP(=O)(Nc1ccc(Cl)cc1Cl)Oc1ccccc1 (stereo unspecified),inactive: -1.53%
13,CP(=O)(OCCOc1ccccc1)OCCOc1ccccc1,inactive: -1.25%
14,Cc1nc2ccc3ccccc3c2o1.O=[N+]([O-])c1cc([N+](=O)[O-])c(O)c([N+](=O)[O-])c1,inactive: 3.56%
15,COc1ccc(OP(C)(=O)Nc2ccccc2Br)cc1 (stereo unspecified),inactive: 0.867%
16,COc1ccccc1OP(C)(=O)Nc1ccc(C)c(C)c1 (stereo unspecified),inactive: -2.67%
17,Cc1cc(C)cc(OP(C)(=O)Nc2cccc(C(F)(F)F)c2)c1 (stereo unspecified),inactive: -0.649%
18,CP(=O)(OC12CC3CC(CC(C3)C1)C2)OC12CC3CC(CC(C3)C1)C2,inactive: 1.63%
